{
  "source": "patent US10759976B2",
  "about": "“Color changeable adhesives and methods of making such adhesives” (Sensor International, LLC, priority 2018, dated 2020)",
  "origin": "cited, not measured here",
  "conditions": "Table 2, carbon dioxide sensitive pigments/dyes",
  "data": [
    {"substance": "β-methyl umbelliferone", "values": [
      {"measurement": "pKa", "value": 7.8}
    ]}
  ]
}
